Sequences of proteins named here, by UniProt entry; tags and fusion partners are left off.
UniProt Q01959, whole entry: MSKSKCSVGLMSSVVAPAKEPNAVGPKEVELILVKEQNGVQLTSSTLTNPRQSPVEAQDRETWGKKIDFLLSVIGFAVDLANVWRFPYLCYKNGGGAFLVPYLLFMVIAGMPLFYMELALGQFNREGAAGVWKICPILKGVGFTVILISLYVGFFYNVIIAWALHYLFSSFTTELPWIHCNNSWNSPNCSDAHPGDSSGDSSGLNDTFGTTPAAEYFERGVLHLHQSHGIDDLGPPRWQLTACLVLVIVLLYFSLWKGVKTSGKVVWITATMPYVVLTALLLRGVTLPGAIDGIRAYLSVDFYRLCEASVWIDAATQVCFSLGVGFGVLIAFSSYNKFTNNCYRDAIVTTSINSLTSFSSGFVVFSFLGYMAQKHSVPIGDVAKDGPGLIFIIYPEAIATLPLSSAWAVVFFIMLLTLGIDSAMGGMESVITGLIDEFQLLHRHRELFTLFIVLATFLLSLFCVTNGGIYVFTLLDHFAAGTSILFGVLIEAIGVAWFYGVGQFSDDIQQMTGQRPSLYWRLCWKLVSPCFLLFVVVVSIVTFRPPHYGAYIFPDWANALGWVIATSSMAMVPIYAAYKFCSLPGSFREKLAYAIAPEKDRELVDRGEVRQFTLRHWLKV
UniProt P23975, whole entry: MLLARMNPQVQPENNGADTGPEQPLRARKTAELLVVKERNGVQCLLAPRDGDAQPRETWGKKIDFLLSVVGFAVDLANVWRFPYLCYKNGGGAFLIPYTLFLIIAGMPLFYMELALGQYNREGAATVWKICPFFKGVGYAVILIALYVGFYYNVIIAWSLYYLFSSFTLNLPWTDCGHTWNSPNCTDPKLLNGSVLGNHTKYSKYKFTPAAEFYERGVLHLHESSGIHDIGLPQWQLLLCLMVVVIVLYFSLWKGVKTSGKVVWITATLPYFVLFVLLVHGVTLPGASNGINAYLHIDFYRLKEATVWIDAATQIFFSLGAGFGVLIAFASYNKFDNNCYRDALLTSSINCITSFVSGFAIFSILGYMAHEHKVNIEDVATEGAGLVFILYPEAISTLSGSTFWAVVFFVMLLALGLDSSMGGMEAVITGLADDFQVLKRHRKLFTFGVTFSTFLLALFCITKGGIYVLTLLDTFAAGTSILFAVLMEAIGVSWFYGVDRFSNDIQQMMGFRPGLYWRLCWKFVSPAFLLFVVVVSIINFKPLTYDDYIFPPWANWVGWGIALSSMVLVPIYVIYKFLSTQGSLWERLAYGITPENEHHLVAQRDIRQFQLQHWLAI
UniProt P31645, whole entry: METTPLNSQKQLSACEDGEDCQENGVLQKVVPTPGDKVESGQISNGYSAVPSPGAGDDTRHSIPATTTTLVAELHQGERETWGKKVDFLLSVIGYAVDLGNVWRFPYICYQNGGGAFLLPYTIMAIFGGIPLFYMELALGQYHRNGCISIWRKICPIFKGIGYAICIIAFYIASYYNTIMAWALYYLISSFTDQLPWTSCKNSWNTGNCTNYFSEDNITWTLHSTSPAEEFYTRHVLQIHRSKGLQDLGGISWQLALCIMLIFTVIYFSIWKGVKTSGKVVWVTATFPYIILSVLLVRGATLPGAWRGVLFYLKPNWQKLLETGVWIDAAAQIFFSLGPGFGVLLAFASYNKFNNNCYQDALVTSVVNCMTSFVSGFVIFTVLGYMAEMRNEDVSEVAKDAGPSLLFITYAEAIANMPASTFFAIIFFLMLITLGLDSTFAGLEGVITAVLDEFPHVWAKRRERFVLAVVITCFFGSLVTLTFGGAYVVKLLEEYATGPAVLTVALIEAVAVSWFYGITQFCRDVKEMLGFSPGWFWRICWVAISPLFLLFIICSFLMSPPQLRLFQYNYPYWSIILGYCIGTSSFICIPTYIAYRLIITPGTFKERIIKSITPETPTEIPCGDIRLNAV

According to patent publication US9045468B2, “2,5-methano- and 2,5-ethano-tetrahydrobenzazepine derivatives and use thereof to block reuptake of norepinephrine, dopamine, and serotonin” (Albany Molecular Research, Inc., priority 2010, dated 2015):

Assays:
hDAT = hDAT (Homo sapiens (Human), UniProt Q01959); assay: DAT radioligand binding assay ([125I]RTI-55, HEK-293 membranes); settings: recombinant HEK-293 membranes, read-out: Binding Affinity (IC50, nM) DAT
Protocol: Recombinant HEK-293 cells expressing either the hSERT, hDAT, or hNET proteins were harvested from T-175 flasks as follows. The medium was removed from the flasks and the cells rinsed with HBSS without Ca and without Mg. The cells were then incubated for 5-10 minutes in 10 mM Tris-Cl, pH 7.5, 5 mM EDTA before the cells were lifted with a combination of pipetting and scraping, as needed. The cell suspension was collected into centrifuge bottles and homogenized for 30 seconds with a Polytron homogenizer. The suspension was centrifuged for 30 minutes at 32,000×g, 4° C. The supernatant was decanted and the pellet resuspended and homogenized in 50 mM Tris-Cl, pH 7.5, 1 mM EDTA for 10 seconds. […]
(§1) Compounds were dissolved in 100% DMSO at a concentration 100 times the desired highest assay concentration, serially diluted 1:3 in 100% DMSO, and 0.4 μl/well of each solution was dispensed to a Nunc polypropylene, round bottom, 384-well plate. […] The plates were air-dried overnight, 12 μl/well of MicroScint scintillation fluid added, and the plates counted in a Trilux.
The raw data was normalized to percent inhibition using control wells defining 0% (DMSO only) and 100% (selective inhibitor) inhibition which were run on each plate. […] The radioligand concentration chosen for each assay corresponds to the Kd concentration determined through saturation binding analysis for each assay.

hNET = hNET (Homo sapiens (Human), UniProt P23975); assay: NET radioligand binding assay ([3H]nisoxetine, HEK-293 membranes); settings: recombinant HEK-293 membranes, read-out: Binding Affinity (IC50, nM) NET
Protocol: (§2) The medium was removed from the flasks and the cells rinsed with HBSS without Ca and without Mg. The cells were then incubated for 5-10 minutes in 10 mM Tris-Cl, pH 7.5, 5 mM EDTA before the cells were lifted with a combination of pipetting and scraping, as needed. The cell suspension was collected into centrifuge bottles and homogenized for 30 seconds with a Polytron homogenizer. The suspension was centrifuged for 30 minutes at 32,000×g, 4° C. The supernatant was decanted and the pellet resuspended and homogenized in 50 mM Tris-Cl, pH 7.5, 1 mM EDTA for 10 seconds. The suspension was then centrifuged again for 30 minutes at 32,000×g, 4° C. The supernatant was decanted and the pellet resuspended in 50 mM Tris-Cl, pH 7.5, 1 mM EDTA and briefly homogenized. A Bradford assay (Bio-rad) was performed and the membrane preparation diluted to 2 mg/ml with 50 mM Tris-Cl, pH 7.5, 1 mM EDTA. Aliquots were prepared, and then frozen and stored at −80° C.
as §1, with “1.0” for “0.4”, “Trilux. […]” for “Trilux.”

hSERT = hSERT (Homo sapiens (Human), UniProt P31645); assay: SERT radioligand binding assay ([125I]RTI-55, HEK-293 membranes); settings: recombinant HEK-293 membranes, read-out: Binding Affinity (IC50, nM) SERT
Protocol: as §2
as §1, with “Trilux. […]” for “Trilux.”

Row | IC50 (hDAT) [nM] | IC50 (hNET) [nM] | IC50 (hSERT) [nM] | Structure (SMILES)
1 | 93.7 |  |  | COc1ccc2c(c1)CN1CCC2(c2ccc(Cl)cc2)C1 (racemic) [Example 1, rac-5-(4-chlorophenyl)-8-methoxy-2,5-methano-2,3,4,5-tetrahydro-1H-benzo[c]azepine]
2 | 53.9 | 385 |  | Oc1ccc2c(c1)CN1CCC2(c2ccc(Cl)cc2)C1 (racemic) [Example 2, rac-5-(4-chlorophenyl)-2,5-methano-2,3,4,5-tetrahydro-1H-benzo[c]azepin-8-ol]
3 |  |  | 11.3 | FC(F)(F)c1nnc2ccc(-c3ccc4c(c3)CN3CCC4(c4ccc(Cl)cc4)C3)cn12 (racemic) [Example 4, rac-5-(4-chlorophenyl)-2,5-methano-8-(3-(trifluoromethyl)-[1,2,4]triazolo[4,3-a]pyridin-6-yl)-2,3,4,5-tetrahydro-1H-benzo[c]azepine]
